Data from PMC9503518, “Antibacterial and Antifungal Properties of a Novel Antimicrobial Peptide GK-19 and Its Application in Skin and Soft Tissue Infections Induced by MRSA or Candida albicans” (Pharmaceutics, 2022).

Tested on: MRSA
Settings: mouse, in vivo
Method: The scalded mice models combined with SSTIs by MRSA or C. albicans were constructed. Fifty normal male Kunming mice (5–6 weeks old) weighing ~25 g were anesthetized by isoflurane using a small animal anesthesia machine (R640, RWD Life Science, China). After skin preparation and disinfection, a custom-made circular iron (diameter: 8 mm) (shown in Figure S4) was applied to both sides of the spine of the mice for 10 s at 300 °C, resulting in four scalded wounds. Mice were injected subcutaneously with 5 mg/kg meloxicam (Aladdin, Shanghai, China) for four days (once per day) after scalding for pain relief. Two days after scalding, the skin tissues of the scalded areas were removed carefully, and about 30 μL of 1 × 10^7 CFU/mL of MRSA or C. albicans was applied evenly onto the surfaces of the wounds. The mice were returned to the original feeding environment after the microbial fluid was completely absorbed (1.5–2 h), with two mice per cage. Corncob granules with SPF level were used as padding.
Two days after microbe inoculating, the scalded wounds of each mouse were divided into four groups randomly. […] Photographs of the wound areas were taken every two days using an iPhone 11 and the wound areas were measured every two days using Image J software (152-win-java8, Bethesda, MD, USA). […] After culturing overnight, the colonies were counted using Image J software or human eyes. […]

SMILES: CCC[C@@H]1C[C@@H](C(=O)N[C@@H]([C@H]2O[C@H](SC)[C@H](O)[C@@H](O)[C@H]2O)[C@H](C)Cl)N(C)C1 [CDHC, clindamycin hydrochloride]
- MRSA suppressed (inhibition rate) at day eight compared with saline solution groups: ~ 95%

Counter-ions that a name gives are not always drawn.
